Target: prostaglandin E receptor type 4 (EP4) (Mus musculus, UniProt P32240)
Assay: amiloride-sensitive short-circuit current in mCCDcl1 cells
Type: cell-based

Chains of the proteins cited; added tags and fusions are not shown. Lines headed by an entry give the natural chain unless they say otherwise; changes in a name come on top.
UniProt P32240: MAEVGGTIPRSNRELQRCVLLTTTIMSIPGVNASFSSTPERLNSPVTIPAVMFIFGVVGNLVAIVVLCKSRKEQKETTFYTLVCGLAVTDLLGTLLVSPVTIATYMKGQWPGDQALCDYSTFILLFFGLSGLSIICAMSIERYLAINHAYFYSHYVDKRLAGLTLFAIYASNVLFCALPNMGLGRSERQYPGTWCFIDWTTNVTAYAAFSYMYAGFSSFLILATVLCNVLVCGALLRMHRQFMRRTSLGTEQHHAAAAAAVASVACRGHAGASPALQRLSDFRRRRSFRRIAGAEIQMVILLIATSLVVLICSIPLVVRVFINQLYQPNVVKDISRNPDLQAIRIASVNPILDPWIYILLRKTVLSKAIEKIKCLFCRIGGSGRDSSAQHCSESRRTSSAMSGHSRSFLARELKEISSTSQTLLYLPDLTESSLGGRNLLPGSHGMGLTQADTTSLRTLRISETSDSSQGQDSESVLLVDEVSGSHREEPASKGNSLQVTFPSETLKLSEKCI

## CCCCC[C@H](O)/C=C/[C@H]1[C@H](O)CC(=O)[C@@H]1C/C=C\CCCC(=O)O [PGE2]
  EC50: ~7.1 nM
